From US10253107B2, “Use of endocytosis inhibitors and antibodies for cancer therapy” (THE UNIVERSITY OF QUEENSLAND, priority 2012, dated 2019) come the findings set out here.

For assay [1], the system named is KJD cells. Kind of assay: Flow cytometry-based ADCC assay on KJD cells. To be noted: Herceptin without Dyngo4a. Format: cell-based, human. In general terms: In flow cytometry, cells or beads pass a laser one at a time.
For assay [2], the system named is A431 cells. The experiment in a line: Flow cytometry-based ADCC assay on A431 cells. The settings on record: Herceptin without Dyngo4a. Format: cell-based, human.

Turning to “Herceptin: anti-HER2 (anti-erbb2) antibody”, the “Herceptin-mediated ADCC of KJD cells” value in assay [1] is “insensitive to Herceptin-mediated ADCC”. In assay [2], the “Herceptin-mediated ADCC of A431 cells” value is “sensitive to Herceptin-mediated ADCC”.
